# Yeast mating assay B: variants of the scFv Ab-14

Values reported by Li et al. 2023, doi:10.1038/s41467-023-39022-2 (FLAb copy).

The target is the same throughout: PDVDLGDISGINAS, from the HR2 region of SARS-CoV-2 spike.

Parent scFv Ab-14: VH joined to VL by three GGGGS repeats. Changes lie in the heavy chain CDRs alone.
VH: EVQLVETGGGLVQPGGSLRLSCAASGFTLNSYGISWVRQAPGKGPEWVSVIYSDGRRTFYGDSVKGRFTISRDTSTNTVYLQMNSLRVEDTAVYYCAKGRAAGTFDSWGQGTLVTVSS
VL: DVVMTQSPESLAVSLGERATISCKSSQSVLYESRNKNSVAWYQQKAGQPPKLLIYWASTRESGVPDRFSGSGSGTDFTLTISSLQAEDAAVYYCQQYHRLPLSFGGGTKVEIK

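Phage display of a naive human antibody library on the peptide gave the parent. These sequences belong to a second round, designed from the earlier measurements on random variants of the parent. Several design methods are mixed in this list. The assay is AlphaSeq: two haploid yeast populations carry antibody and antigen on their surface. After mating in shaken culture at 30 °C for 16 h, diploids were selected and their barcode pairs sequenced. Read counts were normalised to the haploid input and turned into Kd by a linear fit to BCL2-family pairs of known affinity, for each replicate. The assay was run in six technical replicates.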

The parent's heavy chain CDRs are GFTLNSYGIS, VIYSDGRRTFYGDSVK, GRAAGTFDS; each variant's own CDRs replace them letter for letter. Scale: log10 of Kd in nM, estimated from mating counts; low values are strong binders. Averages over replicates are reported, and they cover detected replicates only. "not detected" means that the variant was in the library but no mating with the target was seen in any replicate; the authors take this as a sign of poor binding, and no number exists. Empty control strains, which show no peptide, gave a signal in 1% of pairings with all heavy chain designs; the median was 2.08 and 95% of these signals were weaker than 0.84. No background was subtracted.

| mean, log10 nM | seen in | CDR-H1 | CDR-H2 | CDR-H3 |
|---|---|---|---|---|
| 1.58 | 4 of 6 | GFTLNSYGIS | VIYSDGRRTFYQDSVK | GRAAGTFDS |
| 0.58 | 5 of 6 | GFDFNEYGIS | VIYADGKRTAYADNVK | GGKDAATDI |
| not detected | 0 of 6 | GFTLNSYGIS | VIYSDGRRTFYGDSVK | GSAIGSFDS |
| 0.62 | 6 of 6 | GFTLRDYGIS | VIYSDGRRTFYSDSVK | GRAAGTFDS |
| -0.33 | 6 of 6 | GFDLNEYGIS | VIYADGLRTFYADSVK | GENAGTFDV |
| 1.52 | 5 of 6 | GFTMNSYGIS | VIYSDGRRTFYQDSVK | GRVAGTFDS |
| not detected | 0 of 6 | GFTLNSYGIS | VIYSDGIRTFYSDSVK | GRAGGMFDS |
| 0.86 | 6 of 6 | KFDLNSYGIS | VIYSDGRRTFYKDSVK | GRTAGTFDS |
| not detected | 0 of 6 | GFTLQSHGIS | VIYSDGMRTFYGDSVK | GRAAGTFDS |
| 0.09 | 6 of 6 | GFSLNSYGIS | VIYSDGERTAYGDSVK | GMNAGTFDS |
| -0.71 | 6 of 6 | GFDLNEYGIS | VIYADGRRTFYIDSVK | GNEAGTFDS |
| -0.52 | 6 of 6 | GFDLNEYGIS | VIYADGKRTAYVDSVK | GENAGTFDI |
| -0.15 | 6 of 6 | GFDLDEYGIS | VIYADGRRTYYADSVK | GEVAGTFDV |
| 0.23 | 10 of 12 | GFSLNSYGIS | VIYSDGRRTFYQDSVK | GREAGTFDS |
| 1.04 | 6 of 6 | GFSLNSYGIS | VIYSDGKRTFYGDRVK | GEAAGTFDS |
| not detected | 0 of 6 | GFDLNSYGIS | VIWSDGYRTFYGDSVK | GRAADWFNS |
| 2.55 | 2 of 6 | GFTLEDYGIS | VIYSDGRRTFMGDSVK | GRAAGTFNV |
| 0.85 | 6 of 6 | GFDLNSYGIS | VIYSDGRRTFYVDSVK | GEAAGTFDS |
| not detected | 0 of 6 | GFQLDEYGIS | VIYADGLRQYYAQKVK | GYNSFDLND |
| -0.36 | 6 of 6 | GFDLNEYGIS | VIYADGVRTFYADSVK | GNAAGTFDV |
| -0.57 | 6 of 6 | GFDLNEYGIS | VIYADGRRTAYTDNVK | GQNAGTFDV |
| not detected | 0 of 6 | GFDLNSYGIS | VIYSDGRRTFYTDSVK | GRAAVTFDS |
| -1.42 | 6 of 6 | GFDLNEYGIS | VIYADGRRTAYVDSVK | GHAAGTFDV |
| not detected | 0 of 6 | GFDLNEYGVS | VIYADGQRTQYTDKVK | GGFSAAITF |
| 1.51 | 6 of 12 | GFTLNSYGIS | VIYSDGRRTFYSDSVK | GWAAGTFDS |
| -0.17 | 6 of 6 | GFDLNEYGIS | VIYADGRRTQYIDSVK | GKVAGTFDS |
| 1.09 | 6 of 6 | GFSLNAYGIS | VIYSDGRRTFYGDSVK | GQAAGTFDS |
| -0.06 | 2 of 6 | GFTLNDYGIS | VIYSDGRRTFYGDSVK | GRDAGTFDL |
| -0.11 | 6 of 6 | GFDLNEYGIS | VIYADGMRTAYTDNVK | GEVAGTFDL |
| 0.38 | 6 of 6 | GFTLNSYGIS | VIYADGRRTFYGDSVK | GRAAGFFDS |
| 1.80 | 6 of 6 | GFTLNSYGIS | VIYSDGRRTFYSDSVK | GRQAGTFDM |
| not detected | 0 of 6 | GFDLESYGIS | VIYADGMRTSYTQNVK | GQNVMIMTG |
| not detected | 0 of 6 | GFDLQELGIS | VIYADGTREAYSEKVK | GQLAGYFMF |
| not detected | 0 of 6 | GFNLNSYGIS | VIYSDGLRTSYGDSVK | GRAAVTFDS |
| not detected | 0 of 6 | GFPLLSYGIS | VIYSDGRRTFYSDSVK | GRAAGTFDS |
| not detected | 0 of 6 | GFSLDEYGIS | VIYADGVRRSYSDNVK | GFNGEVSIV |
| 2.00 | 3 of 6 | GFTLNSYGIS | VIYSDGRRTFYGDSVK | GKDAGTFDS |
| -0.07 | 6 of 6 | GFSLNEYGIS | VIYSDGRRTFYADSVK | GRQAGTFDS |
| 0.14 | 6 of 6 | GFTRNSYGIS | VIYSDGRRTFYHDSVK | GRAAGTFDS |
| not detected | 0 of 6 | KFSLNSYGIS | VIYSDGRRTFYADSVK | GQTAGTFDS |
| -0.64 | 5 of 6 | GFSLNDYGIS | VIYSDGRRTFYGDSVK | GRQAGTFDA |
| 1.30 | 1 of 6 | GFTLNSYGIS | VIYSDGRRTFYEDSVK | GRAAGTFPS |
| not detected | 0 of 6 | GFDIMEYGVS | VIYADGVRTAYSQDVK | GNNLDSYVD |
| -0.91 | 6 of 6 | GFDLDEYGIS | VIYADGKRTAYADSVK | GNTAGTFDQ |
| 0.33 | 6 of 6 | GFSLNDYGIS | VIYSDGRRTFYGDSVK | GHAAGTFDS |
| 2.55 | 1 of 6 | GFDVDEQGIS | VIYADGKRSMYANSVK | GTIGGMFFQ |
| not detected | 0 of 6 | GFNLDEYGIS | VIYADGQRVSYDDPVK | GEQGGTVMV |
| -0.65 | 4 of 6 | GFDLNEYGIS | VIYADGKRTAYVDSVK | GNQAGTFDM |
| -0.63 | 6 of 6 | GFDLNEYGIS | VIYADGMRTAYADDVK | GEVAGTFDM |
| not detected | 0 of 6 | GFTLNSYGIS | VIYADGRRTLYGDSVK | GRAAGTNKS |
| 1.19 | 1 of 6 | GFQLDEYGIS | VIYADGQRTAYKQKVK | GSDTGLGWF |
| -0.62 | 6 of 6 | GFDLNEYGIS | VIYADGMRTAYADKVK | GNTAGTFDI |
| -0.82 | 6 of 6 | GFDLDEYGIS | VIYADGVRTAYSDSVK | GGNAGTFDV |
| -0.53 | 6 of 6 | GFDLNEYGIS | VIYADGLRTAYADDVK | GNNAGTFDV |
| not detected | 0 of 6 | GFELQEYGIS | VIYADGRKQSYRDKFK | GGIAGNFDM |
| not detected | 0 of 6 | GFTLNSYGIS | VIYSDGRRTFYGDSVK | GREAGTFDD |
| not detected | 0 of 6 | GFDLNSYCIS | VIYSDGRRTFYGDSVK | VRRAGWFNS |
| -0.73 | 6 of 6 | GFDLNEYGIS | VIYADGRRTAYIDSVK | GEIAGTFDQ |
| -0.54 | 6 of 6 | GFDLNEYGIS | VIYADGKRTAYANSVK | GNVAGTFDL |
| 1.08 | 6 of 6 | GFTLNSYGIS | VIYSDGKRTFYGDSVK | GQVAGTFDS |
| 1.04 | 3 of 6 | GFDLNSYGIS | VIYSDGRRTFYADQVK | GRTAGTFDS |
| not detected | 0 of 6 | GFTLNSYGSS | VIYSDGRRTFYGDSTK | GRAAGTFDS |
| not detected | 0 of 6 | GFTLNEYGIS | VIYSDGRRTFYGDSVK | GRFAGTFDG |
| -0.23 | 6 of 6 | GFNLDEYGIS | VIYADGRRTFYQDSVK | GEVAGTFDE |
| 1.02 | 6 of 6 | GFNLNTYGIS | VIYSDGRRTFYGDSVK | GEAAGTFDT |
| 2.44 | 1 of 6 | GFKLNEYGIS | VIYADGQRKAYTDSFK | GTHAGMVFE |
| 1.24 | 3 of 6 | GFTLESYGIS | VIYSDGQRTFYIDSVK | GRAAGTFDS |
| not detected | 0 of 6 | GFTLNSYGIS | VIYSDGWRTQYGDSVK | GRNAGTPDS |
| 0.59 | 6 of 6 | KFTLNSYGIS | VIYSDGRRTFYADSVK | GQEAGTFDS |
| 0.78 | 6 of 6 | GFDLDEYGIS | VIYADGMRTAYADSVK | GNVAGTFVL |
| not detected | 0 of 6 | GFDLNSYGIS | VIYSDGRRTFYGDQVK | GRAAGAFDS |
| 1.22 | 6 of 6 | GFNLNSYGIS | VIYSDGRRTFYGDQVK | GREAGTFDN |

Again, the first 5 entries without any signal:

{"CDR-H1": "GFTLNSYGIS", "CDR-H2": "VIYSDGRRTFYGDSVK", "CDR-H3": "GSAIGSFDS", "mean, log10 nM": "not detected", "seen in": "0 of 6"}
{"CDR-H1": "GFTLNSYGIS", "CDR-H2": "VIYSDGIRTFYSDSVK", "CDR-H3": "GRAGGMFDS", "mean, log10 nM": "not detected", "seen in": "0 of 6"}
{"CDR-H1": "GFTLQSHGIS", "CDR-H2": "VIYSDGMRTFYGDSVK", "CDR-H3": "GRAAGTFDS", "mean, log10 nM": "not detected", "seen in": "0 of 6"}
{"CDR-H1": "GFDLNSYGIS", "CDR-H2": "VIWSDGYRTFYGDSVK", "CDR-H3": "GRAADWFNS", "mean, log10 nM": "not detected", "seen in": "0 of 6"}
{"CDR-H1": "GFQLDEYGIS", "CDR-H2": "VIYADGLRQYYAQKVK", "CDR-H3": "GYNSFDLND", "mean, log10 nM": "not detected", "seen in": "0 of 6"}

Values of this round are not directly comparable with the first-round values of the same sequences. A sequence that the file lists under several names has all its replicates pooled. Of ten entries with the parent sequence, four were seen in most replicates (averages 0.34 to 2.37), three in one and three in none, so single entries are noisy. The authors averaged sequences with at least three values out of six and counted those with two or fewer as poor binders.